Our source for the IC50 values is BindingDB's records for doi:10.1021/jm980718d (University of Massachusetts Medical Center, 1999).

Molecules are shown by their SMILES. pIC50: −log10 of the molar value.

The target in this assay is Uracil-DNA glycosylase (Human herpesvirus 1) (UniProt P10186). Kind of assay: Inhibitory potency against HSV-1 UDG (Herpes Simplex virus type-I Uracil DNA glycosylase).

On to `CCCCc1ccc(Nc2cc(=O)[nH]c(=O)[nH]2)cc1` [6-(4-Butyl-phenylamino)-1H-pyrimidine-2,4-dione], for which the pIC50 (usually −log10 of the IC50, conventionally taken in molar units) was 3.82.
